Test results taken from patent US20070036775A1, “Method of modulating or examining Ku70 levels in cells” (priority 2001, published 2007).

What was measured:
Hela cells = assay: STS-induced apoptosis in Hela cells, Hoechst staining of apoptotic nuclei; format: cell-based, human; conditions: HeLa cells transfected with Ku70 construct, 200 nM STS, 24 hours
HEK293T cells = assay: UVC-irradiation-induced apoptosis in HEK293T cells, Hoechst staining; format: cell-based; conditions: HEK293T cells transfected with Ku70 construct, 200 J/m^2 UVC, 24 hours
Method: FIG. 2A: Ku70 suppressed STS-induced apoptosis in Hela cells. Hela cells (10^6 cells) were transfected with 0.5 μg pEGFP and 1.0 μg pCMV-2B (Vector), pCMV-2B-Ku70 (Ku70 wt), pCMV-2B-Ku701-535 (Ku701-535), or pCMV-2B-Ku70536-609 (Ku70536-609). One day following transfection, cells were treated with 200 nM STS and the number of apoptotic cells was counted as described in FIG. 1 after 24 hours of STS treatment. FIG. 2B: Ku70 suppressed UVC-induced apoptosis. HEK293T cells (10^6 cells) were transfected with 0.5 μg PEGFP and 1.0 μg pCMV-2B (Vector), pCMV-2B-Ku70 wt (Ku70 wt), or pCMV-2B-Ku70536-609 (Ku70536-609). One day following transfection, cells were exposed to 200 J/m^2 of UVC-irradiation. After 24 hours, apoptotic cells were counted as described in FIG. 1. […] Caspase activity was measured one day following transfection as described in Experimental Procedure. […] Caspase activity was assessed as described in Experimental Procedure. […] Cytochrome c released from mitochondria into cytosol was analyzed by subcellular fractionation followed by Western blot analysis of Cytochrome c (Cyt c) as well as mitochondrial FoF1-ATP-synthase subunit F1α (F1α) as described in Experimental Procedure.
FIG. 7A: Subcellular localization of Bax and Ku70. […] Control Group: Ku70 is detected both in the cytosol and the nucleus. Large proportion of Bax distributes in the cytosol and Bax is also detected in the nucleus. […]

Caspase = assay: STS-induced Caspase activation (DEVD-afc cleavage) in Hela cells; format: cell-based, human; conditions: HeLa cells transfected with Ku70 construct
Method: FIG. 2A: Ku70 suppressed STS-induced apoptosis in Hela cells. Hela cells (10^6 cells) were transfected with 0.5 μg pEGFP and 1.0 μg pCMV-2B (Vector), pCMV-2B-Ku70 (Ku70 wt), pCMV-2B-Ku701-535 (Ku701-535), or pCMV-2B-Ku70536-609 (Ku70536-609). One day following transfection, cells were treated with 200 nM STS and the number of apoptotic cells was counted as described in FIG. 1 after 24 hours of STS treatment. FIG. 2B: Ku70 suppressed UVC-induced apoptosis. HEK293T cells (10^6 cells) were transfected with 0.5 μg PEGFP and 1.0 μg pCMV-2B (Vector), pCMV-2B-Ku70 wt (Ku70 wt), or pCMV-2B-Ku70536-609 (Ku70536-609). One day following transfection, cells were exposed to 200 J/m^2 of UVC-irradiation. After 24 hours, apoptotic cells were counted as described in FIG. 1. FIG. 2C: Ku70 suppressed Bax-induced Caspase activation. […] Caspase activity was measured one day following transfection as described in Experimental Procedure. […] Caspase activity was assessed as described in Experimental Procedure. […] Cytochrome c released from mitochondria into cytosol was analyzed by subcellular fractionation followed by Western blot analysis of Cytochrome c (Cyt c) as well as mitochondrial FoF1-ATP-synthase subunit F1α (F1α) as described in Experimental Procedure. […]

## Ku70: human full length Ku70, 70 kDa subunit of Ku-complex (609 amino acids), expressed from pCMV-2B plasmid
Hela cells
  effect on STS-induced apoptosis: attenuated Staurosporine (STS) induced apoptosis
HEK293T cells
  effect on UVC-irradiation-induced cell death: attenuated
Caspase
  effect on STS-induced Caspase activation: attenuated
